Literature values, collected in patent publication US20190219580A1, “METHODS OF DRUG THERAPY SELECTION FOR BREAST CANCER PATIENTS BASED ON HER2 AND HER3 PATHWAY SUBTYPING” (Nestec S.A., priority 2016, published 2019).
Read-outs that look alike come from different tables or passages of the source.

Experiments:
[1] = system: HER2-positive, locally advanced disease without previous treatment
[2] = system: HER2-positive, operable breast cancer; conditions: trastuzumab incorporated into adjuvant AC→paclitaxel
[3] = system: HER2-positive breast cancer; conditions: with epirubicin, cyclophosphamide followed by docetaxel (EC-DOC), n=620

trastuzumab
HER2 receptor phosphorylation or downstream signaling events (BT474 cell lines): failed to completely inhibit | pCR rate ([1]; patients with low PTEN expression and PI3 kinase mutation): 18% | pCR rate ([1]; single agent first, followed by trastuzumab/docetaxel ×4 cycles): 34% | improvement in disease-free survival (DFS) [2]: 52% | pCR rate (no invasive disease in breast) [3]: 50%
